Results from article PMC8147660 (The Prostate, 2018).

Amino acid sequences for entries named in this document (tags omitted). A change or cut given only in a name is not applied to a line headed by its entry. Residues count along the entry.
UniProt P07288, 25-261: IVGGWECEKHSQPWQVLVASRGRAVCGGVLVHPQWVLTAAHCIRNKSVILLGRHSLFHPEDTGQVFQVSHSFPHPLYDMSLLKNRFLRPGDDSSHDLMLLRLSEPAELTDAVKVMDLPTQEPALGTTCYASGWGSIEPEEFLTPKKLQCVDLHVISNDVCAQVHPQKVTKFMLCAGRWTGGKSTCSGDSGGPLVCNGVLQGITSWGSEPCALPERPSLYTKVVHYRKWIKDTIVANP

Assays:
[1] = molecular target: PSA complex formation with A2M and ACT (Homo sapiens, UniProt P07288); assay: Western blot of PSA complex formation with A2M and ACT ± PSA inhibitor; type: binding; details: inhibitor 10 μM, PSA 10 μg/mL, A2M 20 μg/mL or ACT 20 μg/mL, overnight, room temperature
[2] = molecular target: PSA-A2M (Homo sapiens, UniProt P07288); type: biochemical; details: inhibitor 10 μM; 50% buffered human plasma; substrate Mu-SRKSQQY-AMC 300 μM

Substance: Ahx-FSQn(boro)Bpg
- Blocking of PSA complex formation with A2M and ACT [1]: able to block PSA complex formation with A2M and ACT
- Inhibition of PSA activity after addition to human plasma [2]: maintained the ability to inhibit PSA
